Results from publication PMC9141920, “Identification and Characterization of Dipeptidyl Peptidase-IV Inhibitory Peptides from Oat Proteins” (Foods, 2022).

Chains of the proteins cited; added tags and fusions are not shown.
UniProt P27487, whole entry: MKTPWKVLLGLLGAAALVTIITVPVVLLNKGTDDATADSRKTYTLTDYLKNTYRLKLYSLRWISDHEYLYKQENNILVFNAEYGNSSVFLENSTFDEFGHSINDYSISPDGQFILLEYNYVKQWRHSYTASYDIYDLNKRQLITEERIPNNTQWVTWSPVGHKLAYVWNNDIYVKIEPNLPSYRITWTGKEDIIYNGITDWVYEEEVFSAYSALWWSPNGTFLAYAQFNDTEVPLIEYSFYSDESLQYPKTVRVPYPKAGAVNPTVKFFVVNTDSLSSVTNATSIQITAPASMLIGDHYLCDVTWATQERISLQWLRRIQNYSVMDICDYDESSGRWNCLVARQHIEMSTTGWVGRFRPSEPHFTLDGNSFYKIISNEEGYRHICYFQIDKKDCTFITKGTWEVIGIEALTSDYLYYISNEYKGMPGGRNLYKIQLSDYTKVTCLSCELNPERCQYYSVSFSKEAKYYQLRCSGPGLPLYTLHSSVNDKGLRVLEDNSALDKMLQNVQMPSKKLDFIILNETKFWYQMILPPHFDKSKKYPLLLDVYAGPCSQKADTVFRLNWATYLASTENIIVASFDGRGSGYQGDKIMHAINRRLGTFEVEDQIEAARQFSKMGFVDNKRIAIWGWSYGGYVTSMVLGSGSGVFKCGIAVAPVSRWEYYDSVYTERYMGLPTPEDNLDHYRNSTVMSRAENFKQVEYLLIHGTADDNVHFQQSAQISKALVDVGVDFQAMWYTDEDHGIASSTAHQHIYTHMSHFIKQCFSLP

Molecular target: T1, human DPP-IV (Homo sapiens, UniProt P27487)
T1 construct: purchased Sigma-Aldrich
Assay: DPP-IV inhibitory activity assay with Gly-Pro-AMC as the substrate
Assay type: biochemical
Conditions: peptides
Procedure: The DPP-IV inhibitory activity assay of the sample was performed using Gly-Pro-AMC as the substrate, as previously described. Briefly, 50 µL Gly-Pro-AMC (0.2 mM) was added to a 40 µL sample (dissolved in 100 mM HEPES buffer) and incubated for 10 min at 37 °C. The reaction was initiated by adding 10 µL DPP-IV enzyme solution (10 U/L). After being incubated for 60 min at 37 °C, the reaction was terminated by adding 100 µL sodium acetate buffer (1 M, pH 4.0). The fluorescence intensity of the mixture was measured with an excitation wavelength of 350 nm and an emission wavelength of 440 nm. The control group used the HEPES buffer instead of the sample. The blank group used the HEPES buffer instead of the sample and DPP-IV enzyme solution. The DPP-IV inhibitory activity of the sample was calculated as follows:(2) DPP-IV inhibitory activity (%)=(Ac− Ab) − (As−Ab)/(Ac−Ab)×100% where As, Ac, and Ab are the intensity of the fluorescence of the sample, control, and blank groups, respectively. The half-maximal inhibitory concentration (IC50) of the sample was calculated according to the DPP-IV inhibition activity against the concentrations of the sample. In addition, the type of inhibition of the sample was obtained from the Lineweaver–Burk equation and double reciprocal plots.

Q: Which IC50 does the source give for `CC[C@H](C)[C@H](N)C(=O)N1CCC[C@H]1C(=O)N[C@H](C(=O)O)[C@@H](C)CC` [IPI, reference compound] here?
A: The IC50 was 5.95 ± 0.91 µM.
